From US20240101576A1, “HETEROCYCLIC INHIBITORS OF EGFR AND/OR HER2, FOR USE IN THE TREATMENT OF CANCER” (Scorpion Therapeutics, Inc., priority 2020, published 2024)

Protein sequences, listed by entry. Tags and fused reporters are not part of them. Chains listed by the source or under a name are the forms on record and can include a tag or linker. Residues count along the entry.
UniProt P00533, with tags, fused parts or gaps INS769ASV limits assumed: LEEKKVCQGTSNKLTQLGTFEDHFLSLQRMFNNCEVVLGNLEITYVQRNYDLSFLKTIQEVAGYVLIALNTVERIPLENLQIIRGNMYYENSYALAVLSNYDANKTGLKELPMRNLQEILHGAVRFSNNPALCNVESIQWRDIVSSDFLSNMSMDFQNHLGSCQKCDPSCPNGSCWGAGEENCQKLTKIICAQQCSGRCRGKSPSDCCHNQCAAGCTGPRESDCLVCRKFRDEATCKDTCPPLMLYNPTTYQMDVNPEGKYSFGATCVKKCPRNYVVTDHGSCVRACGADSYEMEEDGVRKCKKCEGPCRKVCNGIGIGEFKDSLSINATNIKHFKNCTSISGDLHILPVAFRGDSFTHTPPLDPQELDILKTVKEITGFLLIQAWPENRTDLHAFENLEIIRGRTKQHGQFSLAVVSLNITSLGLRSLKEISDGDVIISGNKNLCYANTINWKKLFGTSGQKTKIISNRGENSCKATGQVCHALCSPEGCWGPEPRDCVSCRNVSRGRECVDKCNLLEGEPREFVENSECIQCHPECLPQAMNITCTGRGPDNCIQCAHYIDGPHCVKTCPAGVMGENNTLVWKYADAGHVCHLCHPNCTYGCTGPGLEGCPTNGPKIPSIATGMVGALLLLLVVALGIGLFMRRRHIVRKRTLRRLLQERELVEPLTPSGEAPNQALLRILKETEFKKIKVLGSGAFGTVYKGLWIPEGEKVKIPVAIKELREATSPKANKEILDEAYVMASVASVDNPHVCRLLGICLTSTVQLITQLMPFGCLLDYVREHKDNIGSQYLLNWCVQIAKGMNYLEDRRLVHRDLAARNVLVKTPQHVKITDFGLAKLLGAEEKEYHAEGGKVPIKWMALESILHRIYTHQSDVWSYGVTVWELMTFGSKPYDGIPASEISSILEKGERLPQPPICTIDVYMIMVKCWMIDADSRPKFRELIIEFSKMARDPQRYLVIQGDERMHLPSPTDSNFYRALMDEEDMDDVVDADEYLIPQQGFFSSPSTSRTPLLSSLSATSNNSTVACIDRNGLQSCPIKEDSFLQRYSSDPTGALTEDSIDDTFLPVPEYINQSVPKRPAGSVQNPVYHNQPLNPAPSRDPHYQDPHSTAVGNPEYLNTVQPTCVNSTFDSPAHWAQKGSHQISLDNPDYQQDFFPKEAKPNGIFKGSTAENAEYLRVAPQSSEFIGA
UniProt P00533, 25-1210 limits assumed: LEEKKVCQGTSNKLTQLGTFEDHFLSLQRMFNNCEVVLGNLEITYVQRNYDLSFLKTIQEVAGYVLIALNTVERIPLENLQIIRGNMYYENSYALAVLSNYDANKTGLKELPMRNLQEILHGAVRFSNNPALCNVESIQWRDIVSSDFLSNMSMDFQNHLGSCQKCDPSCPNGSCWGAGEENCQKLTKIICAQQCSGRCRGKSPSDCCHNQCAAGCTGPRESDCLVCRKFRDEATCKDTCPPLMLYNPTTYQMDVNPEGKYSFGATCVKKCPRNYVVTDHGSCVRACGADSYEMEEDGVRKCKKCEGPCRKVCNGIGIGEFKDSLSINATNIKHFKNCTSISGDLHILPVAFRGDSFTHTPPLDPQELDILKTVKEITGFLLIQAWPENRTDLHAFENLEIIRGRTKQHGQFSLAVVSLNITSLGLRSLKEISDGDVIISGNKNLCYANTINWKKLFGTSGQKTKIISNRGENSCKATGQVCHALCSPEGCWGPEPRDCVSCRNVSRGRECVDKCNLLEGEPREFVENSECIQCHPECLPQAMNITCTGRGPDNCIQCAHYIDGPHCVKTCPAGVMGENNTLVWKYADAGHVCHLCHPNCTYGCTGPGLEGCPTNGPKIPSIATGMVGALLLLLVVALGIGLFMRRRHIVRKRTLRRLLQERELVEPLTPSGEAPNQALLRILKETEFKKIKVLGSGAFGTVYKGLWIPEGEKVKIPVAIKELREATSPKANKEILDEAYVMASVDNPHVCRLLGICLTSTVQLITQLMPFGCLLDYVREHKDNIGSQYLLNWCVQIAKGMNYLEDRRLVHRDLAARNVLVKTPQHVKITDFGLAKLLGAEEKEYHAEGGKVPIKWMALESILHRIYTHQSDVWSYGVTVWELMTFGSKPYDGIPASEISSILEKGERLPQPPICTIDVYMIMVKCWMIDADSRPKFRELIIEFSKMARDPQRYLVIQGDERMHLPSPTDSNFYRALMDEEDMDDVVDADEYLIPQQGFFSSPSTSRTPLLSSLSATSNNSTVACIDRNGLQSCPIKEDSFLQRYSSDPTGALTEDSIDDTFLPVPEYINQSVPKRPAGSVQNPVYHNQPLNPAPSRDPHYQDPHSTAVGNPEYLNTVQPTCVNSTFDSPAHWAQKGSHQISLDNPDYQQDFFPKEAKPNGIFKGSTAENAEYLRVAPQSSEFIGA
UniProt P00533, with tags, fused parts or gaps INS770NPG limits assumed: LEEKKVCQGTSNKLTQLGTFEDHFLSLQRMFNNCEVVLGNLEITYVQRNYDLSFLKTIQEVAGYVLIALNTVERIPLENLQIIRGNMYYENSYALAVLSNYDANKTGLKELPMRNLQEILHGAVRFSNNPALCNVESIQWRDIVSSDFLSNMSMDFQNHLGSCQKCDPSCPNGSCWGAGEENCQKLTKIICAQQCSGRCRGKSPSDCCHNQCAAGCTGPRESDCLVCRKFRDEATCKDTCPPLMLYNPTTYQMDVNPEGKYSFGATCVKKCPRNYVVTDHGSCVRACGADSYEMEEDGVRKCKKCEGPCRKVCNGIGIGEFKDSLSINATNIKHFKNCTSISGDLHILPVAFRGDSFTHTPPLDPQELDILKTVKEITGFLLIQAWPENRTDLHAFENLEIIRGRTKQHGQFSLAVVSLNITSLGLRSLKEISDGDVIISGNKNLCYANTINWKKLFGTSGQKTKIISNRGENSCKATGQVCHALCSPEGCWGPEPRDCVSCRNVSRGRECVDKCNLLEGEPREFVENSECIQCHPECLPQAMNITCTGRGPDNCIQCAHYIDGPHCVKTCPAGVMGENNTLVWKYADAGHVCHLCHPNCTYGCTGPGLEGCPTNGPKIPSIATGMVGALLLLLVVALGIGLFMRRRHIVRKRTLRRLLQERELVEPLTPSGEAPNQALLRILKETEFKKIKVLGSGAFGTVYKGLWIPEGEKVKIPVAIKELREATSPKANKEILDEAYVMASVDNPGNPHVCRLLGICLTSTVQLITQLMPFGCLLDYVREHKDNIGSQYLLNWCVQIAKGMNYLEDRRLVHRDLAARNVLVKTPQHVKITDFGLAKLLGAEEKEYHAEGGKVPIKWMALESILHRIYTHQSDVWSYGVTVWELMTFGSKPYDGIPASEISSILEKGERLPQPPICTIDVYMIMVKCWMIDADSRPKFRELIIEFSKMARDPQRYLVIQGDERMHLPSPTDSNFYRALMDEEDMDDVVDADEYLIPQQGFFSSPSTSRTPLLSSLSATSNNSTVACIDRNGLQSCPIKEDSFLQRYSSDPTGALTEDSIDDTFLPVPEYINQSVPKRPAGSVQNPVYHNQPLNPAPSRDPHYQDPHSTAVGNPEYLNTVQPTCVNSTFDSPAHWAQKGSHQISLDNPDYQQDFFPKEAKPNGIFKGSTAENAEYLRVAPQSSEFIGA
UniProt P00533, with tags, fused parts or gaps INS770SVD limits assumed: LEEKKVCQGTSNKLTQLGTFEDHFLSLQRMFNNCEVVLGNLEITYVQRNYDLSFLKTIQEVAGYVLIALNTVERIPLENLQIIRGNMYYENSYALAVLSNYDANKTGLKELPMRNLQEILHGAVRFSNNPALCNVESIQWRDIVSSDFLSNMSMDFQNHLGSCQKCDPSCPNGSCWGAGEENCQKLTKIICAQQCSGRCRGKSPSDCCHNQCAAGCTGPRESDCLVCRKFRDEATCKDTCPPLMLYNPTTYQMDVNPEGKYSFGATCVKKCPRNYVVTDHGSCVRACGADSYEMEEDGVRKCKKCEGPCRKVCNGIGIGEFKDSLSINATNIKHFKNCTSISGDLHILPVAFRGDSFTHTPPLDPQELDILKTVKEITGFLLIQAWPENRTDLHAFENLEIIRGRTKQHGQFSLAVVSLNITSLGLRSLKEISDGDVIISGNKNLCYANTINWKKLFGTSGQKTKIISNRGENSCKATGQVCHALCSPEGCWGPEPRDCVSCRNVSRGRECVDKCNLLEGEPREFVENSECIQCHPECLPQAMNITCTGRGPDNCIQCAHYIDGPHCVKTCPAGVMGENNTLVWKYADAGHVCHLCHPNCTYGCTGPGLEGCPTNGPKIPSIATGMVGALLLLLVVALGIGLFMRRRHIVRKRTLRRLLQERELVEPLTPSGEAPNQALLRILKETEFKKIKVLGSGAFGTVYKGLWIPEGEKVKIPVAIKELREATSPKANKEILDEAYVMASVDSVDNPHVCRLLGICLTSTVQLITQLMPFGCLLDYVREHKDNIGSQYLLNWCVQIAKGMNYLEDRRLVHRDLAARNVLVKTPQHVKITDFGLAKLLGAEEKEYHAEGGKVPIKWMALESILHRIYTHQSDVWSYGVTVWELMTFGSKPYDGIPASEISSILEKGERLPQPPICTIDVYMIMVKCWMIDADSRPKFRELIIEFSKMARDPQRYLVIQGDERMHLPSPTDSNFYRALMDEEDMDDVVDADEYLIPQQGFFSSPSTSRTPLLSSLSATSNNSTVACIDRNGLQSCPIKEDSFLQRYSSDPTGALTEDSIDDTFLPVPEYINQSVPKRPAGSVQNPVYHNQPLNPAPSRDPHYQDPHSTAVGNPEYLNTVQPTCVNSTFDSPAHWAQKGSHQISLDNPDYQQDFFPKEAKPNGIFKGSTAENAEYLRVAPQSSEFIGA
UniProt P00533, with tags, fused parts or gaps INS763FQEA limits assumed: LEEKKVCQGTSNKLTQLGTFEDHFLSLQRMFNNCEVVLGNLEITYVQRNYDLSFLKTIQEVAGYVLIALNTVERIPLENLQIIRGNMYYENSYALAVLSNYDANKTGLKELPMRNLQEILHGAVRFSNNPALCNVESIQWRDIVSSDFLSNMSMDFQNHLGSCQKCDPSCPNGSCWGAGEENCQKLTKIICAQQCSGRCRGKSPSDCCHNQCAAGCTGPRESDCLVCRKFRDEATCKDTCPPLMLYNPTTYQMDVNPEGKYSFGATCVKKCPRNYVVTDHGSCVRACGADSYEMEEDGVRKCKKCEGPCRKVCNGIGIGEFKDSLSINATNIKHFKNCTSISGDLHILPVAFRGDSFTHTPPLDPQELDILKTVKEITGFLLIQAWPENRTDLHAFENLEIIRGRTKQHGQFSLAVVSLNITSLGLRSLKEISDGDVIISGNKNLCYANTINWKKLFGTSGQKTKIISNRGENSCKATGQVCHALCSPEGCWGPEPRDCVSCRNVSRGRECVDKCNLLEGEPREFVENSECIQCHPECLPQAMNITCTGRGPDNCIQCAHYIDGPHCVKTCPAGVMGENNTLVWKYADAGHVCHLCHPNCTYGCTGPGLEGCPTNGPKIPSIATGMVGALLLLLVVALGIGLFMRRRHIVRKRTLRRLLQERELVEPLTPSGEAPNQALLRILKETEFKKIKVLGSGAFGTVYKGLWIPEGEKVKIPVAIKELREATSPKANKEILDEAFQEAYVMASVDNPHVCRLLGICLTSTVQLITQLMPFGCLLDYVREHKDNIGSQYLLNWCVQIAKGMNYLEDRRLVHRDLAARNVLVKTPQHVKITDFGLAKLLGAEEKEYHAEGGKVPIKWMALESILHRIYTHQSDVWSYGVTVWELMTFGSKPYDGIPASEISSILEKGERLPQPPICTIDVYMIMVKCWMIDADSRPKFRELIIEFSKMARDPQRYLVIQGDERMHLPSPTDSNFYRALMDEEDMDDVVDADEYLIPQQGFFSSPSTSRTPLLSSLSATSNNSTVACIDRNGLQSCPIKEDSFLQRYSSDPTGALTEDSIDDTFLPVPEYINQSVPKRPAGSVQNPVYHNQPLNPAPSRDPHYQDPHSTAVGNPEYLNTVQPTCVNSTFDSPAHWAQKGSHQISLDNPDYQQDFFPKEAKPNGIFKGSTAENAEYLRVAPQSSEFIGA

Tests used:
Assay type in all cases: cell-based
EGFR WT (Ba/F3 cells) = EGFR WT (Ba/F3 cells) (Homo sapiens, UniProt P00533); test: Inhibitor activity on EGFR-dependent cell growth (CellTiter-Glo, 72 h), Ba/F3 EGFR WT; conditions: read-out: BaF3 WT IC50
[1] = target: T1, EGFR exon 20 NPG Ins D770_N771 (Ba/F3 cells) (Homo sapiens, UniProt P00533, INS770NPG); test: Inhibitor activity on EGFR-dependent cell growth (CellTiter-Glo, 72 h), Ba/F3 EGFR exon 20 NPG Ins; conditions: read-out: BaF3 NPG IC50
[2] = target: T2, EGFR exon 20 ASV Ins V769_D770 (Ba/F3 cells) (Homo sapiens, UniProt P00533, INS769ASV); test: Inhibitor activity on EGFR-dependent cell growth (CellTiter-Glo, 72 h), Ba/F3 EGFR exon 20 ASV Ins; conditions: read-out: BaF3 ASV IC50
[3] = target: EGFR exon 20 SVD Ins D770_N771 (Ba/F3 cells) (Homo sapiens, UniProt P00533, INS770SVD); test: Inhibitor activity on EGFR-dependent cell growth (CellTiter-Glo, 72 h), Ba/F3 EGFR exon 20 SVD Ins; conditions: read-out: BaF3 SVD IC50
[4] = target: EGFR exon 20 FQEA Ins A763_V764 (Ba/F3 cells) (Homo sapiens, UniProt P00533, INS763FQEA); test: Inhibitor activity on EGFR-dependent cell growth (CellTiter-Glo, 72 h), Ba/F3 EGFR exon 20 FQEA Ins; conditions: read-out: BaF3 FQEA IC50
[5] = target: T1, EGFR exon 20 NPG Ins D770_N771 (Ba/F3 cells); test: Inhibitor activity on EGFR phosphorylation (pEGFR AlphaLISA, 2 h), Ba/F3 EGFR exon 20 NPG Ins; conditions: read-out: NPG IC50 (pEGFR)
Description: Example B. Inhibitor Activity on EGFR phosphorylation (pEGFR)
EGFR mutant Ba/F3 cells were generated by transduction with retrovirus containing vectors expressing EGFR L858R, EGFR exon 19del, EGFR L858R/C797S, EGFR exon 20 NPG Ins D770_N771, EGFR exon 20 ASV Ins V769_D770, or EGFR exon 20 SVD Ins D770_N771 genes along with a puromycin selection marker. Transduced cells are selected with puromycin for 7 days and are then be transferred into culture media without Interleukin 3 (IL3). Surviving cells are confirmed to express EGFR by Western blot and maintained as a pool. CUTO14 cells were obtained from Dr. Robert C. Doebele at the University of Colorado. The IC50 date are included in Table 6 and Table 7.
1.1 Cells are harvested from flask into cell culture medium and the cell number counted.
1.2 Cells are diluted with culture medium to the desired density and 40 μL of cell suspension is added into each well of 384-well cell culture plate and the seeding density is 50K cells/well (Ba/F3) or 12.5K cells/well (CUTO14).
2 Compound Preparation and Treatment
2.1 Test compounds are dissolved to 10 mM in a DMSO stock solution. 45 μL of stock solution is transferred to a 384 polypropylene plate (pp-plate). Perform 3-fold, 10-point dilution via transferring 15 μL compound into 30 μL DMSO using a TECAN (EVO200) liquid handler. […]
3.5 Transfer 18.5 μL mixture to OptiPlate 384, and read using an Envision. […]

[6] = target: T2, EGFR exon 20 ASV Ins V769_D770 (Ba/F3 cells); test: Inhibitor activity on EGFR phosphorylation (pEGFR AlphaLISA, 2 h), Ba/F3 EGFR exon 20 ASV Ins; conditions: read-out: ASV IC50 (pEGFR)

IC50 (EGFR WT (Ba/F3 cells)) [nM] | IC50 [1] [nM] | IC50 [2] [nM] | IC50 [3] [nM] | IC50 [4] [nM] | IC50 [5] [nM] | IC50 [6] [nM] | SMILES
100 to 1000 | < 100 | < 100 | < 100 | < 100 | < 100 | < 100 | COc1c(Cl)cccc1Nc1c(-c2ccnc(Nc3cccc(F)c3)n2)[nH]c2c1C(=O)NCC2
> 1000 | – | > 1000 | > 1000 | > 1000 | – | – | C=CC[C@H]1CNC(=O)c2c1[nH]c(-c1cc[n+]([O-])cc1F)c2Nc1cccc(Cl)c1OC
